Test results taken from patent US20260382581A1, “COMPOSITIONS COMPRISING CYTISINE IN THE TREATMENT AND/OR PREVENTION OF ADDICTION IN SUBJECTS IN NEED THEREOF” (published 2026).

Experiment: ORCA-3 (Example 2): adverse events, serious adverse events, severe TEAEs, withdrawals (pooled blinded)
Details: ORCA-3 follow up period
Text: This Example describes a Phase 3, multi-center, double-blind, randomized, placebo-controlled trial designed to evaluate the efficacy and safety of cytisine in adult smokers. This study is designed to improve efficacy outcomes and to determine whether continued treatment can prevent early smoking relapse. The study is designed to evaluate treatment across 3 treatment arms: placebo (A), treatment with cytisine (e.g., cytisinicline) for 6 weeks (B), and treatment with cytisine for 12 weeks (C) as shown in the schematic of FIG. 33. Subjects are randomized to one of the three arms A, B, or C. In Arm A, subjects are treated with a placebo for 12 weeks plus behavioral support. In Arm B, subjects are treated with 3.0 mg cytisinicline TID for 6 weeks followed by a placebo for 6 weeks plus behavioral support. In Arm C, subjects are treated with 3.0 mg cytisinicline TID for 12 weeks plus behavioral support. Cytisine treatment will be evaluated in the study population for 6 or 12 weeks, with a primary efficacy endpoint of 4-weeks of continuous abstinence while on treatment and will include a 6-month follow-up period.
All subjects will be monitored for adverse events starting at screening (pre-existing), by telephone contact on Day 1, at clinic visits on Day 2 and Day 7 during Week 1, then weekly throughout the Treatment Period (Weeks 2 through 12/EOT) and monthly during the Follow-up Period (see Table 15 and Table 16). Laboratory (hematology and chemistry) evaluations will be performed at the Week 1, Week 6, and Week 12 clinic visits using a central laboratory.
Safety will be assessed by consideration of all adverse events reported by or elicited from the subject and abnormalities detected on hematology and serum chemistry tests. Worsening of other pre-existing medical conditions and any changes to concomitant medications/treatments will also be taken into account in this evaluation.
Safety assessments will include reported adverse events, laboratory test results, and vital signs. Safety variables will be summarized for the Safety Analysis Set (SAS), defined as all randomized subjects who take at least one dose of study drug.
Adverse events (AEs) will be coded using the MedDRA dictionary. Coding will include system organ class (SOC) and preferred term (PT). All verbatim descriptions and coded terms will be listed for all AEs.

[1] = start day 86, resolution day 87
[2] = start day 87, resolution day 90
[3] = start day 87, resolution day 96
[4] = start day 102, resolution day 105
[5] = start day 104, resolution day 105
[6] = start day 107, resolution day 111
[7] = start day 112, resolution day 113
[8] = start day 115, resolution day 120
[9] = start day 119, resolution day 139
[10] = start day 146, no resolution day
[11] = start day 148, resolution day 152
[12] = start day 151, resolution day 161
[13] = start day 161, resolution day 161

O=c1cccc2n1C[C@@H]1CNC[C@H]2C1
Unlikely: Causality of serious adverse event: Sepsis [8] | Causality of serious adverse event: Acute Kidney Injury Superimposed to Chronic Kidney Disease [10] | Causality of serious adverse event: Ureterolithiasis [10] | Causality of serious adverse event: Dyspnea [12]
Fatal: Outcome of serious adverse event: Post Surgical Complications [1] | Outcome of serious adverse event: Stab Wound [13]
Recovered/Resolved: Outcome of serious adverse event: Worsening Fatigue [2] | Outcome of serious adverse event: Coronary Atherosclerosis [3] | Outcome of serious adverse event: Acute Cholecystitis [4] | Outcome of serious adverse event: Transient Ischemic Attack [5] | Outcome of serious adverse event: Perforated Bowel [6] | Outcome of serious adverse event: Abscess on Right Groin Area [7] | Outcome of serious adverse event: COPD Exacerbation [8] | Outcome of serious adverse event: Sepsis [8] | Outcome of serious adverse event: Pneumonia [9] | Outcome of serious adverse event: Pneumonia [11] | Outcome of serious adverse event: Dyspnea [12]
Severe: Severity/Intensity of serious adverse event: Post Surgical Complications [1] | Severity/Intensity of serious adverse event: Coronary Atherosclerosis [3] | Severity/Intensity of serious adverse event: Transient Ischemic Attack [5] | Severity/Intensity of serious adverse event: Perforated Bowel [6] | Severity/Intensity of serious adverse event: Abscess on Right Groin Area [7] | Severity/Intensity of serious adverse event: COPD Exacerbation [8] | Severity/Intensity of serious adverse event: Sepsis [8] | Severity/Intensity of serious adverse event: Pneumonia [9] | Severity/Intensity of serious adverse event: Acute Kidney Injury Superimposed to Chronic Kidney Disease [10] | Severity/Intensity of serious adverse event: Ureterolithiasis [10] | Severity/Intensity of serious adverse event: Pneumonia [11] | Severity/Intensity of serious adverse event: Dyspnea [12] | Severity/Intensity of serious adverse event: Stab Wound [13] | Severity/Intensity of serious adverse event: Dyspnea (start day 180, no resolution day)
Moderate: Severity/Intensity of serious adverse event: Worsening Fatigue [2] | Severity/Intensity of serious adverse event: Acute Cholecystitis [4]
